Calls of active or inactive are those of the source.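 Rule for the calls: active = EC50 of 10 µM or lower; inactive = EC50 above 10 µM.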
Biological target: 5-hydroxytryptamine receptor 2A (Mus musculus) (UniProt P35363)
Test: agonist EC50 at mouse 5-HT2A receptor – cell-based, luminescence, CHO-K1, powder samples, dose response, late-stage follow-up (AID 720643)
Conditions: CHO-K1 mHTR2A beta-arrestin PathHunter luminescence

By UniProt entry, the sequences of proteins in these tests, tags left out.
UniProt P35363, whole entry, looked up: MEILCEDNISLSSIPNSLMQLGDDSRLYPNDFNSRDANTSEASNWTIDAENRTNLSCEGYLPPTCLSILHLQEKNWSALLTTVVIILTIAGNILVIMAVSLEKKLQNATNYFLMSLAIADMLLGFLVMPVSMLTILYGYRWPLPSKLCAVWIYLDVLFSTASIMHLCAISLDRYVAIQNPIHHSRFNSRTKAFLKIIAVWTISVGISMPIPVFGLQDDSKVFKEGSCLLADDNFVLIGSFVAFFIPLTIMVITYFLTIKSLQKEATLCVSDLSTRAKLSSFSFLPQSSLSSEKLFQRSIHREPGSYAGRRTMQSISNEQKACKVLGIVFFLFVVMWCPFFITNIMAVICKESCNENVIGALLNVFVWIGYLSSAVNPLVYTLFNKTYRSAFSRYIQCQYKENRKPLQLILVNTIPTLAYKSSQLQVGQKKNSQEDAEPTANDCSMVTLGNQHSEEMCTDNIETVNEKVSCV

Row | Compound | EC50
1 | CCCN1C[C@H](CSC)C[C@@H]2c3cccc4[nH]cc(c34)C[C@H]21 | 959 nM
2 | CC(CCc1ccc(O)cc1)NCCc1ccc(O)c(O)c1 (configuration not stated) | inactive: > 76100 nM

Source: PubChem BioAssay AID720643 (The Scripps Research Institute Molecular Screening Center, 2013)
